Yeast mating assay 1: variants of the scFv Ab-14

Reference: Engelhart et al. 2022, doi:10.1038/s41597-022-01779-4. File: FLAb, binding data.

Target peptide (SARS-CoV-2 spike, HR2 region): PDVDLGDISGINAS

Each scFv is VH, the linker GGGGSGGGGSGGGGS, VL, as in the parent Ab-14, and differs from it in the CDRs of the heavy chain only.
VH: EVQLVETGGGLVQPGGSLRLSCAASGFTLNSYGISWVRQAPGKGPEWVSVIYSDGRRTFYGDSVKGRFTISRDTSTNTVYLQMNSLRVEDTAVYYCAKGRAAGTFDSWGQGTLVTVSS
VL: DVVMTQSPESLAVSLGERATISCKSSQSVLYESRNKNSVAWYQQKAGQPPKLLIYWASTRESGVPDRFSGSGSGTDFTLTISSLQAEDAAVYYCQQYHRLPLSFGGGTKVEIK

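AAYL49 was designed without a model: most single CDR substitutions and a random sample of double and triple ones. The assay is AlphaSeq: two haploid yeast populations carry antibody and antigen on their surface. Binding brings cells together so that they mate, and sequencing counts the barcode pairs among the diploids. Each replicate has its own calibration line, from reference interactions of the BCL2 family. There are three technical replicates.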

Each variant is given by its three heavy chain CDRs, as the data file delimits them; those of the parent are GFTLNSYGIS, VIYSDGRRTFYGDSVK, GRAAGTFDS.
All variants listed here change Y52 of the VH, counted from its first residue.
The read-out is the apparent dissociation constant on a log10 scale (nM): the lower, the stronger.
A mean of the replicates is given; it leaves out those without a signal.
"no signal" means that the variant was in the library but no mating with the target was seen in any replicate; the authors take this as a sign of poor binding, and no number exists.
Nonspecific signal, from three strains lacking the peptide, appeared in 15% of pairings of library AAYL49, centred on 4.06 (5% of these signals below 2.83); values are not corrected for it.
For reference, the parent read 0.65 as the reference entry and 4.11 (one replicate of three) as a member of this library.

The variant LFTVNSYGIS | VIHSDGRRTFYGDSVK | GRAAGTFDS showed no signal (0 of 3 replicates). The variant GFTLNSPGIS | VIMSDGRRFFYGDSVK | GRAAGTFDS showed no signal (0 of 3 replicates). The variant GFTLNSYGPS | VIWSDGRRTFYGPSVK | GRAAGTFDS gave no signal (0 of 3 replicates). The variant GFDLNSYGIS | VIHSDGRRMFYGDSVK | GRAAGTFDS gave 1.48 (3 of 3 replicates). The variant GFTLNSYGIS | VIVSDGRRTFYGVSVK | GRAAGTFKS showed no signal (0 of 3 replicates).

For GFTLNSYGCS | VITSDGRRTFYGDSVM | GRAAGTFDS, the assay gave no signal (0 of 3 replicates). For GFTLNSYGIS | VIISDGPRTFYGDSVK | GRAAGIFDS, the assay gave 4.40 (1 of 3 replicates). For GFTLNSYGIW | VILSDGRRTFYGDSVK | GRAAGTFDS, the assay gave no signal (0 of 3 replicates). With GLTLNSYGIS | VINSDGRRTFYGDPVK | GRAAGTFDS the result was no signal (0 of 3 replicates). For GFTLNSYGIS | VIHSAGRRTFYGDSVK | GRAAGTFDE, the assay gave no signal (0 of 3 replicates).

For GFTLNSYGIS | VIKSDGRRTFRGDSVK | GRAVGTFDS, the assay gave no signal (0 of 3 replicates). For GFTLNSYGIS | VIHSDGRRTFTRDSVK | GRAAGTFDS, the assay gave 4.85 (2 of 3 replicates). With GFTLNSYGWS | VICSDGRRTFYGDSVK | GKAAGTFDS the result was no signal (0 of 3 replicates). The variant GFTLMSYRIS | VISSDGRRTFYGDSVK | GRAAGTFDS gave 4.86 (1 of 3 replicates). For GKTLNSYGIS | VITSRGRRTFYGDSVK | GRAAGTFDS, the assay gave no signal (0 of 3 replicates).

With GFTLWSYGIS | VIMSDGRRTFYGDSVK | GRAAGGFDS the result was no signal (0 of 3 replicates). For GFTLNSYGIS | VICSVKRRTFYGDSVK | GRAAGTFDS, the assay gave 2.60 (2 of 3 replicates). The variant GFTLNSYGIS | VIISDGRRTIYGFSVK | GRAAGTFDS showed no signal (0 of 3 replicates). For GFTLNSYGIF | VIFSDGRRDFYGDSVK | GRAAGTFDS, the assay gave no signal (0 of 3 replicates). The variant GFTLNSYGSS | VIASDGRRTFYGDSVK | GRAAGTFDS showed 3.73 (2 of 3 replicates).

The variant GFGLNSYGIS | VIESDGRRTFYGDSVN | GRAAGTFDS gave 4.56 (2 of 3 replicates). The variant GFTLLSYGIS | VIPSDGRRTFYYDSVK | GRAAGTFDS showed no signal (0 of 3 replicates). The variant GFTGNSYGIS | VIGSDGRRTFYGISVK | GRAAGTFDS showed 4.41 (1 of 3 replicates). The variant GFTLISYGIS | VITSDGRRTKYGDSVK | GRAAGTFDS showed 4.64 (2 of 3 replicates). The variant GFTLNSYGIS | VIHSDGRGTFYGDSVH | GRAAGTFDS gave 2.46 (1 of 3 replicates).

For GFTLNSYVIS | VIMSDWRRTFYGDSVK | GRAAGTFDS, the assay gave no signal (0 of 3 replicates). For GFTLNSYGIS | VIESDGRRTGYGDCVK | GRAAGTFDS, the assay gave 5.39 (2 of 3 replicates). The variant GFKLNSYGIS | VILSDGRRTFYGDSVK | GRANGTFDS showed 3.89 (1 of 3 replicates). The variant GATLNSYGIS | VIESDGDRTFYGDSVK | GRAAGTFDS gave 2.75 (1 of 3 replicates). For GFELNSYGIS | VIHSDGRRTFYGDSVK | GRAAGTFHS, the assay gave 3.91 (3 of 3 replicates).